Among the data in ChEMBL document CHEMBL5483193, “Identification and evaluation of small-molecule inhibitors against the dNTPase SAMHD1 via a comprehensive screening funnel” (iScience, 2024) are inhibition values, retold here.

Chains of the proteins cited; added tags and fusions are not shown. Lines headed by an entry give the natural chain unless they say otherwise; changes in a name come on top.
UniProt Q9Y3Z3: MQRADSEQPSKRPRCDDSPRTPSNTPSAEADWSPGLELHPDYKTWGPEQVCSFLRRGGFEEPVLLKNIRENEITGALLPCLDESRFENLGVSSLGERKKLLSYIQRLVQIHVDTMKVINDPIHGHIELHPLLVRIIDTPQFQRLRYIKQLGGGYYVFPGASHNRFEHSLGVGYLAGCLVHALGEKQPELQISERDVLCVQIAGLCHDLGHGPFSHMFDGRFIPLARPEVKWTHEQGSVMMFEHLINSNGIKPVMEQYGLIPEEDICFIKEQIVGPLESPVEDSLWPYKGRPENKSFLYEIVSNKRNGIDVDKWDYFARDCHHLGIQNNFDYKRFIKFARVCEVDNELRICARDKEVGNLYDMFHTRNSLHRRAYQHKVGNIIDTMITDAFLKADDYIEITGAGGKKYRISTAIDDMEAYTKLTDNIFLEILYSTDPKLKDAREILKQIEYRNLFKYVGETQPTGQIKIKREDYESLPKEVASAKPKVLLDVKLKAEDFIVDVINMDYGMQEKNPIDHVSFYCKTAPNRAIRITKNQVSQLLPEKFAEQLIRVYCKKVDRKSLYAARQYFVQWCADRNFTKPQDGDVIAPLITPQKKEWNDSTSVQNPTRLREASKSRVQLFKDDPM

The list shows a part of the results, in another mix than the full data.

This test addresses Deoxynucleoside triphosphate triphosphohydrolase SAMHD1 (Homo sapiens) (UniProt Q9Y3Z3). The test is described as follows: Compound was evaluated for the inhibition of human recombinant SAMHD1 at 5uM in a enzyme-coupled malachite green assay.
What is called inhibition is the relative decrease from the control value, in per cent. `NC(=O)Nc1ccc([As](=O)(O)O)cc1`: the inhibition was inactive: -7.81%.
With `Cc1cc(C)nc(SC(NC(=O)c2ccccc2)C(Cl)(Cl)Cl)n1` (stereo not drawn) the figure was inactive: -4.5%; with `COc1cccc(OC)c1C(=O)N1C[C@@H]2CCCN2[C@@H]2CCCC[C@@H]21`, inactive: -8.16%.
